# “And” between values parts separate entries of the source, which are not always exact repeats. Identical values can stand only once. This is a selection; strong and weak results do not stand in their true shares. Results filed as inconclusive are left out. The source made the active and inactive calls. Calls follow the shape of the dose curve; as a rule, active = well fitted curve in the direction sought with a large enough effect; inconclusive = small, poorly fitted or top-dose-only effect, or effect the other way, or another doubt; inactive = no such curve, though single readings can be large or run the other way.
# Chains of the proteins cited; added tags and fusions are not shown.
# UniProt Q01196, whole entry, looked up: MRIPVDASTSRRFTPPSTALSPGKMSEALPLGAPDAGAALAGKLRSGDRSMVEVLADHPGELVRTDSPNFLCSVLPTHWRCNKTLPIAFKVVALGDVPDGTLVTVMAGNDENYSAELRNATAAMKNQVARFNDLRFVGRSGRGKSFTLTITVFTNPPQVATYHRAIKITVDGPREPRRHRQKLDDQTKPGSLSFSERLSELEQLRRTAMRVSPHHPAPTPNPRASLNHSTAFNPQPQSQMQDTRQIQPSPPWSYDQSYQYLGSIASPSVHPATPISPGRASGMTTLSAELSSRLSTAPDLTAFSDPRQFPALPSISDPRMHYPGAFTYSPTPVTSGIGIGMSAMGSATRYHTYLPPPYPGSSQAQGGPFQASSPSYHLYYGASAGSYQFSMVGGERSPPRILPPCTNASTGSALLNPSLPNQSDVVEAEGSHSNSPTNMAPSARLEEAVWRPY
# UniProt Q13951, whole entry, looked up: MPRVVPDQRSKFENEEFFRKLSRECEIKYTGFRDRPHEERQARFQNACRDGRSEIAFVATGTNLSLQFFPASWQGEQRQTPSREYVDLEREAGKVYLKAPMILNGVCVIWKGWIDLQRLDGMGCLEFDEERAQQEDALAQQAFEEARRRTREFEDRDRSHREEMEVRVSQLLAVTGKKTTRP
# Target: Runt-related transcription factor 1 (Homo sapiens) + Core-binding factor subunit beta (Homo sapiens) (UniProt Q01196+Q13951)
# Assay: qHTS Assay for Compounds Blocking the Interaction Between CBF-beta and RUNX1 for the Treatment of Acute Myeloid Leukemia; also: % of control where 0% means no effect
# Settings: AlphaScreen CBFb-His/RUNX1-biotin binding, biochemical
# [1] = at 59.8 µM (top of the series) unless noted
structure (smiles),measurement,setting,value
O=[N+]([O-])c1ccc(Nc2ccc(Oc3ccc([N+](=O)[O-])cc3[N+](=O)[O-])cc2)c([N+](=O)[O-])c1,"activity, negative = inhibition",[1],inactive: -4.82%
CN(N=O)C(=N)N[N+](=O)[O-],"activity, negative = inhibition",[1],inactive: 27.8% [at 21.7 µM]
Cc1cc(SC(NC=O)C(Cl)(Cl)Cl)ncn1 (stereo not given),"activity, negative = inhibition",[1],inactive: -6.42%
O=P(Nc1ccccn1)(c1cccc2ccccc12)c1cccc2ccccc12,"activity, negative = inhibition",[1],inactive: -2.69%
CCOC(=O)Nc1cccc([As](=O)(O)O)c1,"activity, negative = inhibition",[1],inactive: 1.06%
Cc1cc(SC(NC(=O)c2ccccc2)C(Cl)(Cl)Cl)nc(C(C)C)n1 (stereo not given),"activity, negative = inhibition",[1],inactive: -5.39%
CCOC(=O)Nc1ccc([As](=O)(O)O)c(O)c1,"activity, negative = inhibition",[1],inactive: -1.77%
CCC(C)N(CC(C)C)C(=S)SC(NC(C)=O)C(Cl)(Cl)Cl (stereo not given),"activity, negative = inhibition",[1],inactive: 2.26%
CCOC(=O)c1ccc(NC(=O)C(C)(CCl)SC)cc1 (stereo not given),"activity, negative = inhibition",[1],inactive: 0.882%
O=C(COc1ccccc1)OC1CN2CCC1CC2 (stereo not given),"activity, negative = inhibition",[1],inactive: 4.87%
COP1(=S)c2c(C)nn(CCC#N)c2N=C(c2ccc(F)cc2)N1C (stereo not given),"activity, negative = inhibition",[1],inactive: 11.6%
COc1ccc(N/C(=N/P(=O)(N2CCOCC2)N2CCOCC2)N2CCOCC2)cc1,"activity, negative = inhibition",[1],inactive: -2.9%
COc1cc(I)ccc1[As](=O)(O)O,"activity, negative = inhibition",[1],inactive: 1.74%
COc1ccc2nc(NP(=O)(c3ccccc3)c3ccccc3)sc2c1,"activity, negative = inhibition",[1],inactive: -1.27%
Cc1cc(=O)[nH]c(N[N+](=O)[O-])n1,"activity, negative = inhibition",[1],inactive: 4.46%
O=C(OC1CN2CCC1CC2)C12CC3CC(CC(C3)C1)C2 (stereo not given),"activity, negative = inhibition",[1],inactive: 1.86%
Cc1c2c(nc3ccccc13)SC(C(Cl)Cl)C2 (stereo not given),"activity, negative = inhibition",[1],inactive: 2.22%
O=[N+]([O-])c1cc([N+](=O)[O-])c(-c2ccn[nH]2)s1,"activity, negative = inhibition",[1],inactive: -5.14%
CCN(CC)C(=S)SC(NC=O)C(Cl)(Cl)Cl (stereo not given),"activity, negative = inhibition",[1],inactive: 4.32%
CC(C)NC(=O)NP(=O)(Oc1ccccc1)Oc1ccccc1,"activity, negative = inhibition",[1],inactive: -1.19%
CC(C)c1ccc(OP(=O)(Nc2ccccn2)Oc2ccccc2F)cc1 (stereo not given),"activity, negative = inhibition",[1],inactive: 4.83%
ClCCSc1nnc(-c2cccnc2)o1,"activity, negative = inhibition",[1],inactive: -5.98%
Cc1ccc2nc3c(c(C)c2c1)CC(C(Cl)Cl)S3 (stereo not given),"activity, negative = inhibition",[1],inactive: 6.27%
Cc1ccc(OP(=O)(Nc2ccc([N+](=O)[O-])cn2)Oc2ccc(C)cc2)cc1,"activity, negative = inhibition",[1],inactive: -2.91%
C[As](=O)(O)c1cccc(C(=O)O)c1,"activity, negative = inhibition",[1],inactive: 10.2%
O=[As](O)(c1ccc(O)cc1)c1ccccc1O,"activity, negative = inhibition",[1],inactive: -14.9%
O=[N+]([O-])c1ccc2c(c1)nnn2O,"activity, negative = inhibition",[1],inactive: 0.981%
CCOP1(=S)c2c(C)nn(CCC#N)c2N=C(c2ccc(F)cc2)N1C (stereo not given),"activity, negative = inhibition",[1],inactive: 2.11%
CN(C(=O)Cc1ccccc1)[C@@H]1CC[C@]2(CCCO2)C[C@H]1N1CCCC1,"activity, negative = inhibition",[1],inactive: 6.95% and inactive: 8.62%
NC(=O)Nc1ccc([As](=O)(O)O)cc1,"activity, negative = inhibition",at 21.7 µM (top of the series),inactive: 11.3% and inactive: 2.13%
same,"activity, negative = inhibition",at 59.8 µM (top of the series),inactive: 5.62%
O=C(O)COc1ccc([As](=O)(O)O)cc1[N+](=O)[O-],"activity, negative = inhibition",[1],inactive: 6.35%
Nc1ccccc1[As](=O)(O)c1ccccc1,"activity, negative = inhibition",[1],inactive: 2.77%
CS(=O)(=O)c1cc([N+](=O)[O-])c2no[n+]([O-])c2c1,"activity, negative = inhibition",[1],inactive: -6.86%
O=P(Nc1nccs1)(c1ccccc1)c1nc2ccccc2s1 (stereo not given),"activity, negative = inhibition",[1],inactive: 9.5%
O=P(Nc1nccs1)(Oc1ccccc1)Oc1ccccc1,"activity, negative = inhibition",[1],inactive: -0.456%
CCOP1(=S)c2c(C)nn(CCC#N)c2N=C(c2ccccc2F)N1C (stereo not given),"activity, negative = inhibition",[1],inactive: 3.43%
CCOP(=O)(Nc1cccc2ccccc12)OCC,"activity, negative = inhibition",[1],inactive: 9.92%
COc1cc(C2NCCC3(OCCO3)C2(C)C)cc(OC)c1OC (stereo not given),"activity, negative = inhibition",[1],inactive: 9.24%
CCCOP(=S)(Nc1nc(N)cc(=O)[nH]1)OCCC,"activity, negative = inhibition",[1],inactive: -1.54%
Nc1cccc2c([As](=O)(O)O)cccc12,"activity, negative = inhibition",[1],inactive: 9.38%
O=[As](O)(c1cccc(O)c1)c1cccc(O)c1,"activity, negative = inhibition",[1],inactive: -12.8%
Cc1cccc(OCC(=O)OC2CN3CCC2CC3)c1 (stereo not given),"activity, negative = inhibition",[1],inactive: 1.9%
COc1cc(C(=O)NCC2(N3CCOCC3)CCCCC2)cc(Cl)c1OC(C)C,"activity, negative = inhibition",[1],inactive: 6.53%
O=[As](O)(O)c1cccnc1,"activity, negative = inhibition",[1],inactive: 7.06%
CN(C(=O)Cc1ccc(Cl)c(Cl)c1)[C@@H]1CC[C@]2(CCCO2)C[C@H]1N1CCCC1,"activity, negative = inhibition",[1],inactive: 7.72% and inactive: 2.88%
O=C(OC1CN2CCC1CC2)c1ccc(Cl)cc1 (stereo not given),"activity, negative = inhibition",[1],inactive: 8.93%
O=[As](O)(c1ccccc1Br)c1ccccc1Br,"activity, negative = inhibition",[1],inactive: 2.09%
CN(C(=O)Cc1ccc(Cl)c(Cl)c1)[C@@H]1CCCC[C@H]1N1CCCC1,"activity, negative = inhibition",[1],inactive: 7.24% and inactive: 5.77% and inactive: -3.9%
CC(C)/C=N\N=C(\N)N[N+](=O)[O-],"activity, negative = inhibition",[1],inactive: -15.9%
CC(C)(C)C(=O)NC(Sc1ncccn1)C(Cl)(Cl)Cl (stereo not given),"activity, negative = inhibition",[1],inactive: 5.1%
Clc1n[nH]nc1-c1nn[nH][15n]1,"activity, negative = inhibition",[1],inactive: 1.86%
CN(CCCl)Cc1cc(Cl)c(NC2=NCCN2)c(Cl)c1,"activity, negative = inhibition",[1],inactive: 11% and inactive: -5.8%
CCOP(=O)(Nc1ccc(C)cn1)OCC,"activity, negative = inhibition",[1],inactive: 8.03%
O=P1(Nc2ccccn2)COc2ccccc2OC1,"activity, negative = inhibition",[1],inactive: 9.32%
O=P1(Nc2ccc(Br)cn2)COc2ccccc2OC1,"activity, negative = inhibition",[1],inactive: 7.14%
O=[As](O)(c1cccs1)c1cccs1,"activity, negative = inhibition",[1],inactive: 16.4%
Cc1ccc(OCC(=O)OC2CN3CCC2CC3)cc1 (stereo not given),"activity, negative = inhibition",[1],inactive: 4.83%
Nc1cccc([As](=O)(O)c2ccccc2)c1,"activity, negative = inhibition",[1],inactive: -6.08%
O=P1(Nc2ncccn2)COc2ccccc2OC1,"activity, negative = inhibition",[1],inactive: -14.6%
O=C(/C=C/c1ccccc1)OC1CN2CCC1CC2 (stereo not given),"activity, negative = inhibition",[1],inactive: 6.85%
CN(C)C1(CNC(=O)c2ccc(S(C)(=O)=O)cc2)CCCCC1,"activity, negative = inhibition",[1],inactive: 20.7%
CC1CCC(C(C)C)C(OP(=O)(Nc2ccccn2)c2ccccc2)C1 (stereo not given),"activity, negative = inhibition",[1],inactive: -7.13%
Cc1nn(-c2ccccc2)c2c1P(=O)(N1CCOCC1)N(C)C(c1ccccc1)=N2 (stereo not given),"activity, negative = inhibition",[1],inactive: -0.773%
Nc1ccc([As](=O)(O)c2ccc([N+](=O)[O-])cc2)cc1,"activity, negative = inhibition",[1],inactive: -14.3%

# — PubChem BioAssay AID1477 (National Center for Advancing Translational Sciences (NCATS), 2009)
